# Data as given in ChEMBL document CHEMBL1146690, “Design and synthesis of aminopropyl tetrahydroindole-based indolin-2-ones as selective and potent inhibitors of Src and Yes tyrosine kinase” (Bioorg Med Chem Lett, 2004).
# Chains of the proteins cited; added tags and fusions are not shown. Lines headed by an entry give the natural chain unless they say otherwise; changes in a name come on top.
# UniProt P11362, whole entry: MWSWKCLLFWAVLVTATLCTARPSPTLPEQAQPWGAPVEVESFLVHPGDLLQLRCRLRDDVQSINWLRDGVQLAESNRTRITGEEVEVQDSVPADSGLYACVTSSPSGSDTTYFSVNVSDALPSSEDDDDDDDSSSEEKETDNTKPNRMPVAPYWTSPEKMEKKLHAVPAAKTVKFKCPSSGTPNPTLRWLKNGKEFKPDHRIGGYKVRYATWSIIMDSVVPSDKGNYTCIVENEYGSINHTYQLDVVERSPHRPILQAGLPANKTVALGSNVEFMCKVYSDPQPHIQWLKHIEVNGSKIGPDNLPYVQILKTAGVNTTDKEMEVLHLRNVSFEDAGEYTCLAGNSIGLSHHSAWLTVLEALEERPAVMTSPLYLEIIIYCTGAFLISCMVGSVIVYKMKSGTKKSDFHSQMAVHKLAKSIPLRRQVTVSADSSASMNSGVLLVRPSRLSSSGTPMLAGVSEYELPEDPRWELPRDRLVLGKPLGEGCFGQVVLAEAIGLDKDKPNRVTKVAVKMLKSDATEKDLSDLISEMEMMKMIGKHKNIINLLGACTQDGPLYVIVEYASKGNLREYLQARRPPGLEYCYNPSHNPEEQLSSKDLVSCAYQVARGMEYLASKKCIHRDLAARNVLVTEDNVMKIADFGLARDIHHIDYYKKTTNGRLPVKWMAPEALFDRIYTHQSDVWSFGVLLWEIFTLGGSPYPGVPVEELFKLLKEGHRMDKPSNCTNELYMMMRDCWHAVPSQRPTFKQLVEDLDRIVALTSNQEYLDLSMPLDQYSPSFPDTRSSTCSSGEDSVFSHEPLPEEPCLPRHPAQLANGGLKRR
# UniProt P06239: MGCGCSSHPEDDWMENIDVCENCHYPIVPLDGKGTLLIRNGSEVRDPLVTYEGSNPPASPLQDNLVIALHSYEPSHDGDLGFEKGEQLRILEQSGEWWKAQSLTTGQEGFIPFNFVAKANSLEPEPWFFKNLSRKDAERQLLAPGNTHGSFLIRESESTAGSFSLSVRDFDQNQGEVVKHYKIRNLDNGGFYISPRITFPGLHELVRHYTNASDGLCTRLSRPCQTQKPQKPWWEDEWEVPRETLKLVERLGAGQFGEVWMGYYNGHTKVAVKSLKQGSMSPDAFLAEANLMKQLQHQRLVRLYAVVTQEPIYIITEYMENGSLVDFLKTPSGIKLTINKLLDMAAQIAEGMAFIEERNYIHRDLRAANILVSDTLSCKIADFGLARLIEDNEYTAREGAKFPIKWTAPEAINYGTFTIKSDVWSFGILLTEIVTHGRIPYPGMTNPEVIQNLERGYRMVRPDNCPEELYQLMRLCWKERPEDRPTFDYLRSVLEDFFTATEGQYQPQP
# Legend:
# [1] = biological target: Fibroblast growth factor receptor 1 (Homo sapiens, UniProt P11362); assay: Inhibitory activity against Fibroblast growth factor receptor 1
# [2] = biological target: Tyrosine-protein kinase Lck (Homo sapiens, UniProt P06239); assay: Inhibitory activity against Lck tyrosine kinase
Structure (SMILES),IC50 [1] [nM],IC50 [2] [nM]
CCS(=O)(=O)c1ccc2c(c1)/C(=C/c1[nH]c3c(c1CCCN1CCC(O)CC1)CCCC3)C(=O)N2,500,
CNS(=O)(=O)c1ccc2c(c1)/C(=C/c1[nH]c3c(c1CCCN1CCOCC1)CCCC3)C(=O)N2,,700
